Like-named read-outs stand apart in the source and are kept apart here.
Assays:
[1] = biological target: EGFR D19TMCS (del19/T790M/C797S) (Homo sapiens, UniProt P00533, C797S/DEL746-750/T790M); test: Biochemical EGFR kinase inhibition (Lance Ultra TR-FRET), del19/T790M/C797S; settings: read-out: EGFR D19TMCS IC50
EGFR WT = EGFR WT (Homo sapiens, UniProt P00533); test: Biochemical EGFR kinase inhibition (Lance Ultra TR-FRET), wildtype; settings: read-out: EGFR WT IC50; ATP at Km
EGFR LRCS (L858R/C797S) = EGFR LRCS (L858R/C797S) (Homo sapiens, UniProt P00533, C797S/L858R); test: Biochemical EGFR kinase inhibition (Lance Ultra TR-FRET), L858R/C797S; settings: read-out: EGFR LRCS IC50
[2] = biological target: EGFR LRTMCS (L858R/T790M/C797S) (Homo sapiens, UniProt P00533, C797S/L858R/T790M); test: Biochemical EGFR kinase inhibition (Lance Ultra TR-FRET), L858R/T790M/C797S; settings: read-out: EGFR LRTMCS IC50
EGFR D19CS (del19/C797S) = EGFR D19CS (del19/C797S) (Homo sapiens, UniProt P00533, C797S/DEL746-750); test: Biochemical EGFR kinase inhibition (Lance Ultra TR-FRET), del19/C797S; settings: read-out: EGFR D19CS IC50

Amino acid sequences for entries named in this document (tags omitted). A change or cut given only in a name is not applied to a line headed by its entry. Chains listed by the source or under a name are the forms on record and can include a tag or linker. Residues count along the entry.
UniProt P00533, 25-1210 C797S/L858R limits assumed: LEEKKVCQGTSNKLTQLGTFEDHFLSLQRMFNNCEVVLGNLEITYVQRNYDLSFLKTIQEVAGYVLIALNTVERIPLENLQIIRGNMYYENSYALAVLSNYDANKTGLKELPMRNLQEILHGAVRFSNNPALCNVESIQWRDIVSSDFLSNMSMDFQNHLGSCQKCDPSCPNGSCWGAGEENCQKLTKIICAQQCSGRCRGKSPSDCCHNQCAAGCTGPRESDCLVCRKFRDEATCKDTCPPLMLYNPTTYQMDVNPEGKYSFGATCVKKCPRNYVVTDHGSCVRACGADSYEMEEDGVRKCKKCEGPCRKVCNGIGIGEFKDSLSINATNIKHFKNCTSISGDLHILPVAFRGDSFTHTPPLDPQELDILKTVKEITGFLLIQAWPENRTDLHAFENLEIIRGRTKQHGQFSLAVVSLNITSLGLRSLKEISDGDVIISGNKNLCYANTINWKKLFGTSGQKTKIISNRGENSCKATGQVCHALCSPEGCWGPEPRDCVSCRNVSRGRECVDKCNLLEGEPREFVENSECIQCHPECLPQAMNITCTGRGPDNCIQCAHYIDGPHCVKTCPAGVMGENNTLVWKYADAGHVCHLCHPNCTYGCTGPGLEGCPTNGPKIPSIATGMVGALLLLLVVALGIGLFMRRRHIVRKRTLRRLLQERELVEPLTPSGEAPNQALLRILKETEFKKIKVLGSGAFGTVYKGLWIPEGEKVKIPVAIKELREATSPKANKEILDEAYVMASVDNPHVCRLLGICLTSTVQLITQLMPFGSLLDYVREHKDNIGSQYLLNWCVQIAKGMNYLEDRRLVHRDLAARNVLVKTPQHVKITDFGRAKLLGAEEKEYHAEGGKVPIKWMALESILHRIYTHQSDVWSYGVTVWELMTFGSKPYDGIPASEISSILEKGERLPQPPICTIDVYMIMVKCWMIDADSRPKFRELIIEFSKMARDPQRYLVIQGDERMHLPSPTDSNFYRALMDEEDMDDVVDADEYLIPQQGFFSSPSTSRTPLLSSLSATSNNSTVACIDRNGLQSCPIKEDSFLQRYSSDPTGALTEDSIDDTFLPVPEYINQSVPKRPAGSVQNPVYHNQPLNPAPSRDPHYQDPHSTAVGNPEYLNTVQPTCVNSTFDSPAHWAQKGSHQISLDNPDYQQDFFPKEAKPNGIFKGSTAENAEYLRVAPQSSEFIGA
UniProt P00533, 25-1210 T790M/C797S/L858R limits assumed: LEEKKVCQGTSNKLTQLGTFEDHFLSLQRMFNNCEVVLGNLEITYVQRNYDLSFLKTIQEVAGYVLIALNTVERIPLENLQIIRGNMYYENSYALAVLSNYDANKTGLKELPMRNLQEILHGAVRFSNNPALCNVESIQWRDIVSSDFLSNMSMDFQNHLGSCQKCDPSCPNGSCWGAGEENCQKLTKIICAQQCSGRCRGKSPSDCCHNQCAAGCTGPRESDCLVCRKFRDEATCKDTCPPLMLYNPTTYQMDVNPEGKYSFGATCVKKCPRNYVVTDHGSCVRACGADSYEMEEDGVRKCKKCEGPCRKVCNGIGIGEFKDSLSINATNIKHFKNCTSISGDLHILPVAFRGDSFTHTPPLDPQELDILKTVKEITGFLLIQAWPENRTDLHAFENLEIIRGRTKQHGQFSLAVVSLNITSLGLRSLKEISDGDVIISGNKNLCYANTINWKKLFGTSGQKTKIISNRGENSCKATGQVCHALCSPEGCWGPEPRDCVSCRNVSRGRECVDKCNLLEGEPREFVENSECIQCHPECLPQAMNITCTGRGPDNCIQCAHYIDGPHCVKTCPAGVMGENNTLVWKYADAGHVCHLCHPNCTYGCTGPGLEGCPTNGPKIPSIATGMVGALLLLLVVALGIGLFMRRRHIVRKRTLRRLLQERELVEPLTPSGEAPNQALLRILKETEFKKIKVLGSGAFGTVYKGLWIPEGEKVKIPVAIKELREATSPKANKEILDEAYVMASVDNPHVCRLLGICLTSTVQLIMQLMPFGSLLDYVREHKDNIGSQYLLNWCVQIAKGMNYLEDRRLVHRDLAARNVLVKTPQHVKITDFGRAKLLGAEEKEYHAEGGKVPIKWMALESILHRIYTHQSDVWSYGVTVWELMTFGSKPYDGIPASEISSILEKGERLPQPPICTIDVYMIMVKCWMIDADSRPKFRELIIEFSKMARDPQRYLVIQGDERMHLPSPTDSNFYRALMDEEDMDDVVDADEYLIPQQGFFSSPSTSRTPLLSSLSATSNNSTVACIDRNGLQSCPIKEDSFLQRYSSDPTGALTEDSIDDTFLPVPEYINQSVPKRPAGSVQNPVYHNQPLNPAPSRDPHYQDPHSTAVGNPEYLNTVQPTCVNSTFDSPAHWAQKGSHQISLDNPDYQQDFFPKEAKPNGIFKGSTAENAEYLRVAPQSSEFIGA
UniProt P00533, with tags, fused parts or gaps DEL746-750/C797S limits assumed: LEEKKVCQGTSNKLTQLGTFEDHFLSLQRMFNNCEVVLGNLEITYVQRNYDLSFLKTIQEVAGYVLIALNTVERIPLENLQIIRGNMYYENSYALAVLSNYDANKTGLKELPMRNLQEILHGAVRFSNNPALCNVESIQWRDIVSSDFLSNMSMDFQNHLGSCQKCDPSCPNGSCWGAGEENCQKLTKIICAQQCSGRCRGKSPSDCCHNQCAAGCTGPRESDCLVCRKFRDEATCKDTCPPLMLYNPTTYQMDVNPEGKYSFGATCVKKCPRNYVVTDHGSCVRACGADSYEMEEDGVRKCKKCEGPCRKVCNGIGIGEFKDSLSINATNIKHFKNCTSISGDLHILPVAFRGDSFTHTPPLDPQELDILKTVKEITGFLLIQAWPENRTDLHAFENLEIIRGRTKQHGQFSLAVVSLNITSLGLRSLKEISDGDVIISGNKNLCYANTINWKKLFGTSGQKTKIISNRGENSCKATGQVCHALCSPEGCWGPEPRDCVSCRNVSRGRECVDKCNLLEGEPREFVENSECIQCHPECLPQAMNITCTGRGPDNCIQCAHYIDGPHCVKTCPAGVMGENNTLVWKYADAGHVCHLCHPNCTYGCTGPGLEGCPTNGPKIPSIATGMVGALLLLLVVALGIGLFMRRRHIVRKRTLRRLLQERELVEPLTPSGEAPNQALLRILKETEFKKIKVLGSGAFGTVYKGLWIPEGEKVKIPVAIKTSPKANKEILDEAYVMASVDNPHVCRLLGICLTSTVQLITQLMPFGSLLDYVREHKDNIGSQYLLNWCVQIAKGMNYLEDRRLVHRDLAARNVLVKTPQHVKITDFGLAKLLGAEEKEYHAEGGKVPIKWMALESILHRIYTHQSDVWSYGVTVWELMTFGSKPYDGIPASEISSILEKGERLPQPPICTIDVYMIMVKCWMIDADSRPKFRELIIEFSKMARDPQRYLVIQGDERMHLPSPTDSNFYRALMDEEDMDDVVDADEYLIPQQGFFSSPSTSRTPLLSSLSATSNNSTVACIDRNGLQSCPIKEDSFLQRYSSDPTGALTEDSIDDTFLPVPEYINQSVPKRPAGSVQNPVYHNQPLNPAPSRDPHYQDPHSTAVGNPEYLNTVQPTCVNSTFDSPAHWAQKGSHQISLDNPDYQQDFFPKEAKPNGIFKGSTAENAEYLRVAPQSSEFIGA
UniProt P00533, with tags, fused parts or gaps DEL746-750/T790M/C797S limits assumed: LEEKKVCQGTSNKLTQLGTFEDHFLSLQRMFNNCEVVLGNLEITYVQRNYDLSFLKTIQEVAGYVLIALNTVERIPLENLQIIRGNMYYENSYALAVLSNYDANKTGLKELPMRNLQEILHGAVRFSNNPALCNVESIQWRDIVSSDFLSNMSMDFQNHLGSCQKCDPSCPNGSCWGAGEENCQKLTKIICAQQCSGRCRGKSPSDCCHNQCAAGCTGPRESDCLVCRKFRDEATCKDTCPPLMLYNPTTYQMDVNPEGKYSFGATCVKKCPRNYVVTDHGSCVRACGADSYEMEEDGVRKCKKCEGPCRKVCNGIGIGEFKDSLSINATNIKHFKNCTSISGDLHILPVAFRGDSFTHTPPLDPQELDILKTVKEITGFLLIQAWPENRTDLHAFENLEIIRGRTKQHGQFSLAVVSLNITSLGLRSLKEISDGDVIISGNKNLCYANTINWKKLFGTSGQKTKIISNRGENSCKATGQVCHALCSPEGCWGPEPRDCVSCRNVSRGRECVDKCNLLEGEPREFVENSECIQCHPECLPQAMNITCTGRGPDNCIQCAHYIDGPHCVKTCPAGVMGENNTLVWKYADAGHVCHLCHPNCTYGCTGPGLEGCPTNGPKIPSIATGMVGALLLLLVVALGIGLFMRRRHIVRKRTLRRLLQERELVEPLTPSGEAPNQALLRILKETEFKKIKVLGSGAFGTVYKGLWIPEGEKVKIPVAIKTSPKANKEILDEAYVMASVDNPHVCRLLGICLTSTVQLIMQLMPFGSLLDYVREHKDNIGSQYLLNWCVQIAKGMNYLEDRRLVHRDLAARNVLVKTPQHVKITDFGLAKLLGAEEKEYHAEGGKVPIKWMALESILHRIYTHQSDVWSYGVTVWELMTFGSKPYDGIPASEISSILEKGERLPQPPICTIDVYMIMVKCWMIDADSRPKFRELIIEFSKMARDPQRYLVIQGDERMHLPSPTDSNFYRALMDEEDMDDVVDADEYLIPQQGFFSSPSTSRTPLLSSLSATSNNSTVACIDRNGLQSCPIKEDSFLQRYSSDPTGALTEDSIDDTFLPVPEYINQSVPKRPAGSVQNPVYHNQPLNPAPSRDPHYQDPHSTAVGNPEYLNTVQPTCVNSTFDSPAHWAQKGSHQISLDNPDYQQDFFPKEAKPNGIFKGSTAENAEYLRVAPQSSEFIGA
UniProt P00533, 25-1210 limits assumed: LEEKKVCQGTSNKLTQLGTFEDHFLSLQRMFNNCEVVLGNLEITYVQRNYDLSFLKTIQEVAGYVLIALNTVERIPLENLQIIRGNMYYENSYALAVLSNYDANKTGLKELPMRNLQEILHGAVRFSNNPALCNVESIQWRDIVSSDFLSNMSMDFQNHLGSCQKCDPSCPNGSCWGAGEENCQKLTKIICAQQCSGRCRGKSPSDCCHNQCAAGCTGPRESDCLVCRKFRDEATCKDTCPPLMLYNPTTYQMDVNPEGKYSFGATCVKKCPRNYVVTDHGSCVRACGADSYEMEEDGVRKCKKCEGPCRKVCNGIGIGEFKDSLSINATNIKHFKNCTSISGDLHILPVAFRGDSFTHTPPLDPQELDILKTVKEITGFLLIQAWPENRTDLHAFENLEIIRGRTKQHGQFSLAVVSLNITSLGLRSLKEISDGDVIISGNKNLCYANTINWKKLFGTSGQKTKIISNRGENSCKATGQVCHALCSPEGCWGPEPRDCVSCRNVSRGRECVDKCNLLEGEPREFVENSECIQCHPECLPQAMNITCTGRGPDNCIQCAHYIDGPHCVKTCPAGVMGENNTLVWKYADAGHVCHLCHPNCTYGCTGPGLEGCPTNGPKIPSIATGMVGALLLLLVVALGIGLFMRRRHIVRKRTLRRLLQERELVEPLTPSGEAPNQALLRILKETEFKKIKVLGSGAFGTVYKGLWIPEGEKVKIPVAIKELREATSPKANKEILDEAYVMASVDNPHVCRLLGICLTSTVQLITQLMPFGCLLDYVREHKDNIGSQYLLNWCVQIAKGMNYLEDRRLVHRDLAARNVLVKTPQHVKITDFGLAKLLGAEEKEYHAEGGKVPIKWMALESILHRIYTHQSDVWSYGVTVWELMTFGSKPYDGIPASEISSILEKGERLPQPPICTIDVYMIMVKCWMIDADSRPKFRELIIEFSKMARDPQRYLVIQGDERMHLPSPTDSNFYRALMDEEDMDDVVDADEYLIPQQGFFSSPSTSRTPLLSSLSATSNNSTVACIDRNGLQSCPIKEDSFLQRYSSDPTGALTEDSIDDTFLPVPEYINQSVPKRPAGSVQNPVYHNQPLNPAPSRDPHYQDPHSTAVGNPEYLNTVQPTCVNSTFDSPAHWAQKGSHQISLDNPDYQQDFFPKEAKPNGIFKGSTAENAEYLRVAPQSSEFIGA

Structure (SMILES)	IC50 ([1]; 1 mM ATP) [nM]	IC50 ([1]; ATP at Km) [nM]	IC50 (EGFR WT) [nM]	IC50 (EGFR LRCS (L858R/C797S); 1 mM ATP) [nM]	IC50 (EGFR LRCS (L858R/C797S); ATP at Km) [nM]	IC50 ([2]; 1 mM ATP) [nM]	IC50 ([2]; ATP at Km) [nM]	IC50 (EGFR D19CS (del19/C797S); 1 mM ATP) [nM]	IC50 (EGFR D19CS (del19/C797S); ATP at Km) [nM]
C[C@H]1CCOc2c(cnn2C)-c2nccc(n2)Nc2cc(c(CCc3cnn(C)c3)cn2)N1	10 to 100	< 10	100 to 1000	> 1000	100 to 1000	10 to 100	< 10	> 1000	100 to 1000
C[C@H]1CCNc2cc(ncc2C#Cc2cnn(C)c2)Nc2ccnc(n2)-c2cnn(C)c2O1	< 10	< 10	< 10	10 to 100	< 10	< 10	< 10	< 10	< 10
C[C@H]1CCOc2c(cnn2CC(F)(F)F)-c2nccc(n2)Nc2cc(c(C#Cc3cnn(C)c3)cn2)N1	< 10	< 10	100 to 1000	100 to 1000	10 to 100	< 10	< 10	100 to 1000	100 to 1000
CC(C)n1cc(C#Cc2cnc3cc2N[C@@H](C)CCOc2c(cnn2C)-c2nccc(n2)N3)cn1	< 10	< 10	10 to 100	100 to 1000	10 to 100	< 10	< 10	10 to 100	< 10
C[C@H]1CCOc2c(cnn2C)-c2nccc(n2)Nc2cc(c(C#Cc3cnn(C(F)F)c3)cn2)N1	< 10	< 10	10 to 100	100 to 1000	< 10	< 10	< 10	10 to 100	< 10
C[C@@H]1CCOc2c(cnn2C)-c2nccc(n2)Nc2cc(c(C#Cc3cnn(CC(F)F)c3)cn2)N1	10 to 100	< 10	> 1000	> 1000	10 to 100	10 to 100	< 10	> 1000	100 to 1000
C[C@H]1CCOc2c(cnn2C)-c2nccc(n2)Nc2cc(c(C#Cc3ncn(C)n3)cn2)N1	< 10	< 10	10 to 100	> 1000	10 to 100	< 10	< 10	100 to 1000	10 to 100
C[C@H]1CCOc2c(cnn2C)-c2nccc(n2)Nc2cc(c(C=Cc3cnn(C)c3)cn2)N1	10 to 100	< 10	100 to 1000	> 1000	100 to 1000	10 to 100	< 10	100 to 1000	100 to 1000
Cc1nn(C)c2c1-c1nccc(n1)Nc1cc(c(C#Cc3cn(C)nc3C#N)cn1)N[C@@H](C)CCO2	< 10	< 10	10 to 100	100 to 1000	< 10	< 10	< 10	10 to 100	< 10
C[C@H]1CCOc2c(cnn2C)-c2nccc(n2)Nc2cc(c(C#Cc3cn(C)nc3C(F)(F)F)cn2)N1	< 10	< 10	10 to 100	> 1000	10 to 100	< 10	< 10	10 to 100	10 to 100
Cc1nn(C)c2c1-c1nccc(n1)Nc1cc(c(C#Cc3cnn(C(F)F)c3)cn1)N[C@@H](C)CCO2	< 10	< 10	10 to 100	100 to 1000	< 10	10 to 100	< 10	10 to 100	< 10
Cn1ncc2c1OCCCNc1cc(ncc1C#Cc1cnn(CC(F)(F)F)c1)Nc1ccnc-2n1	10 to 100	10 to 100	100 to 1000	> 1000	100 to 1000	100 to 1000	10 to 100	> 1000	100 to 1000
Cc1nn(C)cc1C#Cc1cnc2cc1N[C@@H](C)CCOc1c(c(C)nn1C)-c1nccc(n1)N2	< 10	< 10	10 to 100	100 to 1000	< 10	< 10	< 10	10 to 100	< 10
C[C@H]1CCOc2c(cnn2C)-c2nccc(n2)Nc2cc(c(C#Cc3cnn(C4CCOCC4)c3)cn2)N1	< 10	< 10	< 10	100 to 1000	< 10	< 10	< 10	10 to 100	< 10
Cc1nn(C)c2c1-c1nccc(n1)Nc1cc(c(C#Cc3cnn(CC(F)F)c3)cn1)N[C@@H](C)CCO2	< 10	< 10	10 to 100	100 to 1000	< 10	< 10	< 10	10 to 100	< 10

— patent US20260384449A1, “MACROCYCLIC AMINOPYRIDINE COMPOUNDS AS EGFR INHIBITORS” (published 2026)
